Antibody variant affinities, Ab-14 light chain, assay B

The target is the same throughout: PDVDLGDISGINAS, from the HR2 region of SARS-CoV-2 spike.

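This is the validation round: designs drawn from the data on random variants, tested in the same kind of assay. Their group label is 14L_GP_HC (GP: Gaussian process model; HC: hill climbing; a sequence that several methods proposed may carry one label only). In AlphaSeq, yeast of one mating type display the scFv and yeast of the other type display the target. Mating (16 h, 30 °C) was followed by selection of diploids and sequencing of their barcodes. Each replicate has its own calibration line, from reference interactions of the BCL2 family. There are six technical replicates.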

Parent scFv Ab-14: VH joined to VL by the linker GGGGSGGGGSGGGGS. Changes lie in the light chain CDRs alone.
VH: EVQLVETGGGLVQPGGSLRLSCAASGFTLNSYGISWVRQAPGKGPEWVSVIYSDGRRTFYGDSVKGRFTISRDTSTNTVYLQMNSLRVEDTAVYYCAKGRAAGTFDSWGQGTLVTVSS
VL: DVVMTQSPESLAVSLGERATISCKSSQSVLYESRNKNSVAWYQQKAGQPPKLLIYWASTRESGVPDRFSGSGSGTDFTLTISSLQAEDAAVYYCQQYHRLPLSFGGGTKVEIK

The parent's light chain CDRs are KSSQSVLYESRNKNSVA, WASTRES, QQYHRLPLS; each variant's own CDRs replace them letter for letter. Values are log10 of the apparent Kd in nM; lower means stronger binding. A mean of the replicates is given; it leaves out those without a signal. A pair that was not seen in that replicate is written "nd"; this usually means weak binding, but a binder can also be missed. The authors' rule: three or more of the six replicates give a measured affinity, fewer mean a poor binder.

| # | CDR-L1 | CDR-L2 | CDR-L3 | log10 Kd (nM) by replicate | mean log10 Kd (nM) | signal with controls |
|---|---|---|---|---|---|---|
| 1 | KSSISSLYESRNKNSVA | EASTRES | QQYHRLPLM | 0.51 / 0.56 / 0.50 / 0.52 / 0.64 / 0.75 | 0.58 | 0/18 |
| 2 | KSECGVLYESRNKNSVA | GASTRES | QQYHRLPLS | 0.23 / 0.12 / 0.04 / -0.23 / -0.34 / 0.17 | 0.00 | 0/18 |
| 3 | KFSQWVWYESRTKNSVA | NASTRES | QQYHRLPLS | 0.31 / 0.52 / 0.61 / 0.76 / 0.54 / 0.61 | 0.56 | 0/18 |
| 4 | KLSISYLYESRNKNSVA | AASTRES | QQYHRLPLS | nd / nd / nd / nd / nd / nd | nd | 0/18 |
| 5 | KMEQGVLYESRNKNSVA | DASVRES | QQYHRLPLS | -0.13 / -0.26 / -0.14 / -0.35 / -0.25 / -0.13 | -0.21 | 1/18 (4.04) |
| 6 | KVLQSVLYEERNKNSVA | HASTRED | QQYHRLPLS | -0.05 / 0.14 / 0.21 / 0.11 / 0.12 / 0.11 | 0.11 | 0/18 |
| 7 | KSSLSVKFESRNKNSVA | DASTRES | QQYHRLPLS | 0.10 / -0.05 / 0.06 / -0.10 / -0.03 / 0.05 | 0.00 | 6/18 (2.64) |
| 8 | KLSQSVLFQSRNKNSVA | DASTRES | QQYHRLPLS | -0.32 / -0.43 / -0.54 / -0.67 / -0.47 / -0.38 | -0.47 | 0/18 |
| 9 | KLSMSFLYESRNKNSVA | GASTRES | QQYHRLPLS | 0.15 / 0.10 / 0.07 / -0.27 / -0.22 / 0.21 | 0.01 | 1/18 (2.63) |
| 10 | MSSQSWLYESRNKNSVA | GASTRES | QQYHRLPLS | 1.75 / 0.03 / -0.33 / -0.20 / 0.09 / 0.33 | 0.28 | 1/18 (1.84) |
| 11 | KSSISYLYESRNKNSVA | AASMRES | QQYHRLPLS | 0.32 / 0.11 / 0.09 / -0.11 / 0.19 / 0.25 | 0.14 | 1/18 (2.51) |
| 12 | HSSPSVHYESRNKNSVA | NASTRES | QQYHRLPLS | 0.16 / -0.04 / 0.11 / -0.31 / 0.21 / 0.34 | 0.08 | 1/18 (2.21) |
| 13 | HSSPSMLYESRNKNSVA | NASTRES | QQYHRLPLS | 0.81 / 0.47 / 0.29 / 0.29 / 0.56 / 0.47 | 0.48 | 2/18 (2.88) |
| 14 | HSSPSEPYESRNKNSVA | NASTREE | QDYHRLPLS | 0.43 / 0.01 / -0.14 / -0.35 / -0.24 / 0.10 | -0.03 | 0/18 |
| 15 | HSSPSVAYESRNKNSVA | DASTRES | QQYHRLPLS | 0.14 / 0.18 / 0.13 / -0.11 / 0.17 / 0.06 | 0.10 | 0/18 |
| 16 | KLEQSTLYESRNKNSVA | QASTRES | QQYHRLPLS | 0.48 / 0.41 / 0.43 / 0.50 / 0.30 / 0.54 | 0.44 | 3/18 (2.66) |
| 17 | KSLFSWLYESRNKNSVA | HASTREQ | QQYHRLPLS | nd / 1.46 / nd / 3.24 / 1.72 / 1.00 | 1.85 | 0/18 |
| 18 | KSQQSVLYESRNQNNVA | HASTRED | QQYHRLPLS | -0.09 / -0.10 / -0.18 / -0.22 / 0.09 / 0.15 | -0.06 | 2/18 (3.47) |
| 19 | KSLQSVLYESRNKNSVA | GASTRED | QLYHRLPLS | 0.31 / 0.44 / 0.32 / 0.50 / 0.26 / 0.74 | 0.43 | 0/18 |
| 20 | KNSQSVDFESRNKNSVA | DASTRES | QQYHRLPLS | -0.12 / -0.23 / -0.36 / -0.40 / -0.29 / -0.25 | -0.27 | 1/18 (3.99) |
| 21 | KSSQSILYESVNKNSVA | HASTREQ | QQYHRLPLS | 0.68 / 0.34 / 0.52 / 0.12 / 0.22 / 0.89 | 0.46 | 2/18 (3.01) |
| 22 | KFSQSVLYEDRTWNSVA | NASTRES | QQYHRLPLS | 0.09 / -0.27 / -0.14 / -0.26 / -0.25 / -0.08 | -0.15 | 2/18 (2.56) |
| 23 | KMSQSVLMEWRNKNSVA | DASLRES | QQYHRLPLS | 0.22 / 0.20 / 0.11 / 0.19 / 0.05 / 0.36 | 0.19 | 3/18 (3.05) |
| 24 | KFSQSVLYESRTKNSVA | EASTRES | QQYHRLPLS | 0.00 / -0.06 / -0.21 / -0.20 / -0.10 / -0.03 | -0.10 | 3/18 (2.34) |
| 25 | KSQQSWLYESRNFNSVA | NASTRED | QQYHRLPLS | -0.06 / 0.01 / -0.10 / -0.09 / -0.15 / 0.15 | -0.04 | 1/18 (2.68) |
| 26 | ASSQGWLYEQRNKNSVA | GASTRED | QQYHRLPLS | -0.14 / -0.34 / -0.19 / -0.30 / -0.15 / -0.28 | -0.23 | 0/18 |
| 27 | KSSQWYLYESRNKNSVA | GASTRES | QQYHRLPLS | 0.57 / 0.40 / 0.39 / 0.47 / 0.48 / 0.57 | 0.48 | 0/18 |
| 28 | KQSQEVLFGSRNKNSVA | DASTRES | QQYHRLPLS | 0.33 / 0.12 / 0.09 / -0.02 / 0.32 / 0.31 | 0.19 | 1/18 (2.62) |
| 29 | KSSQSFHYESRNKNSVA | GASTRES | QQYHRLPLS | 0.11 / -0.09 / -0.08 / -0.15 / -0.22 / 0.14 | -0.05 | 1/18 (2.47) |
| 30 | KQSQSVLMESRNVNSVA | DASTRES | QQYHRLPLS | 0.31 / 0.14 / -0.25 / 0.37 / -0.44 / -0.26 | -0.02 | 0/18 |
| 31 | KQSQSVPYESRNKNSVA | MASTRES | QQYHRLPLS | 0.58 / 0.41 / 0.58 / 0.77 / 0.45 / 0.35 | 0.52 | 0/18 |
| 32 | KSLQSELYESRNKNSVA | HASTREQ | QQYHRLPLS | -0.01 / 0.09 / 0.35 / 0.16 / -0.10 / 0.07 | 0.09 | 0/18 |
| 33 | KLLQSVLYESRDKNNVA | HASTRED | QQYHRLPLS | 0.14 / 0.08 / 0.27 / 0.01 / -0.11 / 0.07 | 0.08 | 1/18 (2.07) |
| 34 | KQSQSVLMESRNKNSVA | DASTRES | QQYVRLPLS | -0.14 / -0.37 / -0.35 / -0.63 / -0.31 / -0.11 | -0.32 | 0/18 |
| 35 | KALQSVLYESRNKNSVA | HASTRED | QQYHQLPLS | 0.52 / 0.18 / 0.44 / 0.19 / 0.19 / 0.47 | 0.33 | 1/18 (4.83) |
| 36 | KSRQSQEYESRNKNSVA | HASTRED | QQYHRLPLS | 0.29 / -0.02 / 0.03 / -0.19 / 0.05 / 0.13 | 0.05 | 1/18 (2.41) |
| 37 | KLSQSWLYESRWKNSVA | GASQRES | QQYHRLPLS | 1.16 / 0.87 / 0.76 / 1.01 / 1.78 / 1.21 | 1.13 | 0/18 |
| 38 | KMEGGVLYESRNKGSVA | GASVRES | QQYHRLPLS | -0.24 / -0.34 / -0.27 / -0.34 / -0.47 / -0.02 | -0.28 | 1/18 (4.25) |
| 39 | KYYPSYLYESRNKNSVA | NASTRES | QQYHLLPLS | 0.48 / 0.46 / 0.45 / 0.08 / 0.29 / 0.31 | 0.35 | 2/18 (3.00) |
| 40 | KLEQGVLYESRNKNSVA | GASVRES | QQYHRLPLS | -0.21 / -0.43 / -0.55 / -0.63 / -0.46 / -0.41 | -0.45 | 0/18 |
| 41 | SFSQSVLYESRDKNSVA | NASTRES | QQYHRLPLS | 0.08 / 0.10 / 0.19 / -0.05 / -0.09 / -0.03 | 0.03 | 1/18 (1.57) |
| 42 | KFSISYLGESRNKNSVA | EASTRES | QQYHRLPLS | 0.07 / 0.12 / -0.14 / -0.16 / 0.40 / 0.10 | 0.06 | 0/18 |
| 43 | KQSQSVPYEWRNKNSVA | DASTRES | QQYHRLPLS | 0.06 / -0.13 / -0.21 / -0.39 / -0.29 / -0.23 | -0.20 | 0/18 |
| 44 | KFPQSVLYESRNKNSVA | HASTRED | QSYHRLPLS | 0.13 / 0.27 / 0.09 / -0.19 / 0.06 / 0.23 | 0.10 | 0/18 |
| 45 | KSSWSPLYESRNKNSVA | DASTRES | QQYHRLPLS | 0.43 / 0.48 / 0.32 / 0.27 / 0.20 / 0.37 | 0.35 | 4/18 (3.40) |
| 46 | KSSISYLYESENKWSVA | EASQRES | QQYHRLPLS | nd / 1.62 / nd / 1.46 / nd / nd | 1.54 | 0/18 |

The 8 strongest on average among those seen in every replicate, once more:

| CDR-L1 | CDR-L2 | CDR-L3 | log10 Kd (nM) by replicate | mean log10 Kd (nM) | signal with controls |
|---|---|---|---|---|---|
| KLSQSVLFQSRNKNSVA | DASTRES | QQYHRLPLS | -0.32 / -0.43 / -0.54 / -0.67 / -0.47 / -0.38 | -0.47 | 0/18 |
| KLEQGVLYESRNKNSVA | GASVRES | QQYHRLPLS | -0.21 / -0.43 / -0.55 / -0.63 / -0.46 / -0.41 | -0.45 | 0/18 |
| KQSQSVLMESRNKNSVA | DASTRES | QQYVRLPLS | -0.14 / -0.37 / -0.35 / -0.63 / -0.31 / -0.11 | -0.32 | 0/18 |
| KMEGGVLYESRNKGSVA | GASVRES | QQYHRLPLS | -0.24 / -0.34 / -0.27 / -0.34 / -0.47 / -0.02 | -0.28 | 1/18 (4.25) |
| KNSQSVDFESRNKNSVA | DASTRES | QQYHRLPLS | -0.12 / -0.23 / -0.36 / -0.40 / -0.29 / -0.25 | -0.27 | 1/18 (3.99) |
| ASSQGWLYEQRNKNSVA | GASTRED | QQYHRLPLS | -0.14 / -0.34 / -0.19 / -0.30 / -0.15 / -0.28 | -0.23 | 0/18 |
| KMEQGVLYESRNKNSVA | DASVRES | QQYHRLPLS | -0.13 / -0.26 / -0.14 / -0.35 / -0.25 / -0.13 | -0.21 | 1/18 (4.04) |
| KQSQSVPYEWRNKNSVA | DASTRES | QQYHRLPLS | 0.06 / -0.13 / -0.21 / -0.39 / -0.29 / -0.23 | -0.20 | 0/18 |

Empty control strains, which show no peptide, gave a signal in 4% of pairings with all light chain designs; the median was 2.64 and 95% of these signals were weaker than 1.59. No background was subtracted. For each scFv, signals with the empty controls are counted beside the result, with their mean in brackets. Of ten entries with the parent sequence, four were seen in most replicates (averages 0.34 to 2.37), three in one and three in none, so single entries are noisy. A sequence measured in both rounds can read differently, since the two assays cover different ranges.

Source: Li et al. 2023 (doi:10.1038/s41467-023-39022-2), MIT Lincoln Laboratory and A-Alpha Bio; data file from the FLAb repository.